The results in this text go back to patent publication US20050049294A1, “Methods of using [3.2.0] heterocyclic compounds and analogs thereof” (priority 2003, published 2005).

The assay relates to Jurkat cells. The assay is described as follows: Cytotoxicity against Jurkat cells. It is filed as cell-based. The conditions noted are these: Homo sapiens, 48 h.

One may read the EC50 as the concentration giving half of the maximal effect. A higher EC50 goes with a need for much substance. `C[C@@]12OC(=O)[C@]1([C@@H](O)[C@@H]1C=CCCC1)NC(=O)[C@@H]2CCCl` [Formula II-16, Salinosporamide A]: the 50% effective concentration (EC50) turned out to be 0.01 µM.
